This note sets out measurements from PMC5622171 (Nature Communications, 2017).

Protein sequences, listed by entry. Tags and fused reporters are not part of them. Residues count along the entry.
UniProt O75469, 146-433 limits assumed: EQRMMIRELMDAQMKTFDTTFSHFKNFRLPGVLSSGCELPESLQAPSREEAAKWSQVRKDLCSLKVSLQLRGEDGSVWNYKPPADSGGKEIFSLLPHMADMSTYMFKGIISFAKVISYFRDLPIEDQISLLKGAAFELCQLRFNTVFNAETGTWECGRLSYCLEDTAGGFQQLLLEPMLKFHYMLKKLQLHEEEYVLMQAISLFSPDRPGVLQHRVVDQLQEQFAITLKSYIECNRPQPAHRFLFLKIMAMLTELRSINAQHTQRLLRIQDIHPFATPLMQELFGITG
UniProt O75469, whole entry: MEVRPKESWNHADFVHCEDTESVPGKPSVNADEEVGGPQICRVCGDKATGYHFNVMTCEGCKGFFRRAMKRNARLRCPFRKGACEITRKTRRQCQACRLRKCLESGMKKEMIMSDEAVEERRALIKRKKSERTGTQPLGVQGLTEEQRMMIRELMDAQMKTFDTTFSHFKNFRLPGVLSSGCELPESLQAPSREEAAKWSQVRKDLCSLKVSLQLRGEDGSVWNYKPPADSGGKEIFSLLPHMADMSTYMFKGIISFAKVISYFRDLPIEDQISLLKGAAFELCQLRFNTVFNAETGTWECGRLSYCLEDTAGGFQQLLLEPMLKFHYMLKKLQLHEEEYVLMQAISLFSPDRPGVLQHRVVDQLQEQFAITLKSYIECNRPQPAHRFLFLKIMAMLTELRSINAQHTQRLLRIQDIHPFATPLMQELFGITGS
UniProt P37231, 238-505 limits assumed: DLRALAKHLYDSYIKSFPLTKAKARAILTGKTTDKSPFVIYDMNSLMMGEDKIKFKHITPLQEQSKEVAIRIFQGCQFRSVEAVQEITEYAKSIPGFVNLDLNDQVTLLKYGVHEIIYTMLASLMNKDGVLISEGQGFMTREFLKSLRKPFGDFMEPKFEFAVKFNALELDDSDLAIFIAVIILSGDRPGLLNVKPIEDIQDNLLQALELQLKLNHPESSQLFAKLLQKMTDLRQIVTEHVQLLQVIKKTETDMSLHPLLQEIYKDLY

In data set [1] the target is T1, hPXR (Homo sapiens, UniProt O75469). Nature of the data set: hPXR TR-FRET-binding assay. To be noted: read-out: IC50 (Binding). In general terms: In TR-FRET formats the signal depends on donor and acceptor labels being close together.
Data set [2] has as its target T1, hPXR. Nature of the data set: hPXR transactivation assay, HepG2 stable cell line, antagonistic mode.
The target in a further data set is PPARγ (Homo sapiens, UniProt P37231). In words: GeneBLAzer NR-UAS-bla HEK 293 T assay. It is filed as cell-based. To be noted: antagonistic mode and basal activity.

For `COc1cc(-n2nnc(S(=O)(=O)c3ccc(C(C)(C)C)cc3)c2C)c(OC)cc1C(C)=O`, the IC50 (in general, the concentration at which inhibition is half-maximal) on hPXR [1] came to 2330 nM.
As for `COc1cc(-n2nnc(S(=O)(=O)c3ccc(C(C)(C)C)cc3)c2C)c(OC)cc1C(C)C`, at hPXR [1], the IC50 was determined as 310 nM.
Same read-out and setting: for `CCc1cc(OC)c(-n2nnc(S(=O)(=O)c3ccc(C(C)(C)C)cc3)c2C)cc1OC` the value was 530 nM; for `COc1cc(-n2nnc(S(=O)(=O)c3ccc(C(C)(C)C)cc3)c2C)c(OC)cc1Br`, 1530 nM.
Take `COc1cc(-n2nnc(S(=O)(=O)c3ccc(C(C)(C)C)cc3)c2C)c(OC)cc1F`: the IC50 at hPXR [1] was determined as 1340 nM. In addition, the “hPXR antagonistic activity (in words)” value at hPXR [2] is “decreased hPXR antagonistic activity”.
Take `COc1cc(Cl)c(Cl)cc1-n1nnc(S(=O)(=O)c2ccc(C(C)(C)C)cc2)c1C`: the “Effect on PPARγ” value at PPARγ is “moderately antagonized PPARγ and reduced its basal activity”.
Consider `COc1cc(-n2nnc(S(=O)(=O)c3ccc(C(C)(C)C)cc3)c2C)c(OC)cc1C#N`, for which, at hPXR [1], the IC50 is 2200 nM.
